# According to patent publication US8568745B2, “Water-soluble drug carrier and process for producing the same” (Kyushu University, National University Corporation, priority 2009, dated 2013):
# Tested on: B16 melanoma cells
# Conditions: 0.10, 0.50, 1.0, 3.0 mg/mL in medium, 6 hours
substance,measurement,value
sucrose laurate ester [L-1695],cytotoxicity (cell viability relative to control),"at low concentrations, also could be used to prepare a S/W preparation of low cytotoxicity"
